Source: article PMC9369162, “Substrates of the Human Brain Proton-Organic Cation Antiporter and Comparison with Organic Cation Transporter 1 Activities” (International Journal of Molecular Sciences, 2022)
“And” between values parts separate entries of the source, which are not always exact repeats. Equal entries are not always repeated. Where two headings read alike, the source gives them in different places.

What was measured:
H + OC antiporter [1] = assay: Trans-stimulation (antiport) with diphenhydramine as probe substrate in hCMEC/D3 cells; type: cell-based, human; details: for good substrate of both H + OC antiporter and OCT1: diphenhydramine as probe substrate, compared with OCT1 ratio
H + OC antiporter [2] = assay: Trans-stimulation (antiport) with MDAI as probe substrate in hCMEC/D3 cells; type: cell-based, human
H + OC antiporter [3] = assay: Cis-inhibition of substrate uptake into hCMEC/D3 cells by diphenhydramine, imipramine or memantine
H + OC antiporter [4] = assay: Proton gradient dependency of uptake (FCCP) in hCMEC/D3 cells; type: cell-based, human; details: FCCP 25 µM, 2 min
H + OC antiporter [5] = assay: Concentration-dependent uptake into hCMEC/D3 cells (transport kinetics)
H + OC antiporter [6] = assay: Combined criteria for H + OC antiporter substrates (trans-stimulation, inhibition, FCCP, saturable uptake) in hCMEC/D3 cells; type: cell-based, human; details: all criteria
[7] = hCMEC/D3, inhibitor diphenhydramine 250 µM, substrate 3 µM, 2 min
[8] = hCMEC/D3, inhibitor memantine 250 µM, substrate 3 µM, 2 min
[9] = hCMEC/D3, intracellular diphenhydramine after 2 min incubation with substrate over without substrate
[10] = hCMEC/D3, intracellular MDAI after 2 min incubation with substrate over without substrate

Structure (SMILES) | Cis DPH, mean ratio of intracellular substrate concentration with inhibitor over without inhibitor (H + OC antiporter [3]) | Cis Imip, mean ratio of intracellular substrate concentration with inhibitor over without inhibitor (H + OC antiporter [3]) | Cis Mema, mean ratio of intracellular substrate concentration with inhibitor over without inhibitor (H + OC antiporter [3]) | other results
N[C@@H]1C[C@H]1c1ccccc1 (racemic) [Tranylcypromine] |  |  |  | DPH Antiport Ratio (H + OC antiporter [1]): 0.30; MDAI Antiport Ratio (H + OC antiporter [2]): 0.11
CN(C)CCC=C1c2ccccc2CCc2ccccc21 [Amitriptyline] |  |  |  | Cis DPH, mean ratio of intracellular substrate concentration with inhibitor over without inhibitor (H + OC antiporter [3]; [7]): 0.66; Cis Mema, mean ratio of intracellular substrate concentration with inhibitor over without inhibitor (H + OC antiporter [3]; [8]): 0.7
C[N+](C)(C)CCO [Choline] |  |  |  | DPH Antiport Ratio (H + OC antiporter [1]; [9]): 1.04; MDAI Antiport Ratio (H + OC antiporter [2]; [10]): 1.27
CN(C)CCCC1(c2ccc(F)cc2)OCc2cc(C#N)ccc21 (centres unmarked) [Citalopram] | 0.27 | 0.13 | 0.3 | 
CC(C)(C)NCC(O)c1cc(Cl)c(N)c(Cl)c1 (centres unmarked) [Clenbuterol] | 0.33 | 0.37 | 0.5 | 
CN(C)CC(c1ccc(O)cc1)C1(O)CCCCC1 (centres unmarked) [Desmethylvenlafaxine] | 0.82 | 0.67 | 1 | good substrate of both H + OC antiporter and OCT1 (H + OC antiporter [1]): good substrates of both the H + OC antiporter and OCT1
CC(CCc1ccc(O)cc1)NCCc1ccc(O)c(O)c1 (centres unmarked) [Dobutamine] |  |  |  | good substrate of both H + OC antiporter and OCT1 (H + OC antiporter [1]): good substrates of both the H + OC antiporter and OCT1
CN(C)CCC=C1c2ccccc2COc2ccccc21 [Doxepin] |  |  |  | Cis DPH, mean ratio of intracellular substrate concentration with inhibitor over without inhibitor (H + OC antiporter [3]; [7]): 0.33; Cis Mema, mean ratio of intracellular substrate concentration with inhibitor over without inhibitor (H + OC antiporter [3]; [8]): 0.4
CNCC[C@H](Oc1cccc2ccccc12)c1cccs1 [Duloxetine] | 0.78 | 0.01 | 0.8 | DPH Antiport Ratio (H + OC antiporter [1]): 0.10; Trans DPH, mean ratio of DPH remaining within the cells with substrate over control without substrate (H + OC antiporter [1]): 0.1; MDAI Antiport Ratio (H + OC antiporter [2]): 0.10; Trans MDAI, mean ratio of MDAI remaining within the cells with substrate over control without substrate (H + OC antiporter [2]): 0.1; FCCP, mean ratio of intracellular substrate concentration with FCCP co-incubation over without FCCP (H + OC antiporter [4]): 1; Km (H + OC antiporter [5]): < 30 µM and 27.7 µM; Vmax (H + OC antiporter [5]): 3167 pmol × mg Protein^−1 × min^−1; intrinsic clearance (H + OC antiporter [5]; hCMEC/D3): above 100 mL/min/g protein
CN[C@@H](C)[C@H](O)c1ccccc1 [Ephedrine] | 0.46 | 0.34 | 0.6 | 
CN(C)CCC[C@@]1(c2ccc(F)cc2)OCc2cc(C#N)ccc21 [Escitalopram] | 0.32 | 0.15 | 0.4 | 
CC12CC3CC(C)(C1)CC(N)(C3)C2 [Memantine] | 0.23 | 0.2 |  | 
CCC1(c2cccc(O)c2)CCCCN(C)C1 (centres unmarked) [Meptazinol] | 0.29 | 0.18 | 0.3 | good substrate of both H + OC antiporter and OCT1 (H + OC antiporter [1]): good substrates of both the H + OC antiporter and OCT1
COC(=O)C(c1ccccc1)C1CCCCN1 (centres unmarked) [Methylphenidate] | 0.6 | 0.55 | 0.6 | 
CCN(CC)CCNC(=O)c1cc(Cl)c(N)cc1OC [Metoclopramide] | 0.29 | 0.21 | 0.4 | 
COCCc1ccc(OCC(O)CNC(C)C)cc1 (centres unmarked) [Metoprolol] |  |  |  | classification as H + OC antiporter substrate (H + OC antiporter [6]): we did not classify metoprolol as an H + OC antiporter substrate
CCN(CC)C(=O)C1(c2ccccc2)CC1CN (centres unmarked) [Milnacipran] |  |  |  | good substrate of both H + OC antiporter and OCT1 (H + OC antiporter [1]): good substrates of both the H + OC antiporter and OCT1
CNCC1CCCCC1(O)c1cccc(OC)c1 (centres unmarked) [N-Desmethyltramadol] | 0.31 | 0.48 | 0.5 | 
CNCCC=C1c2ccccc2CCc2ccccc21 [Nortriptyline] |  |  |  | Km (H + OC antiporter [5]; hCMEC/D3, 2 min uptake, 0.1–1000 µM, after subtraction of linear passive-diffusion component): 38.1 µM; Vmax (H + OC antiporter [5]; hCMEC/D3, 2 min uptake, after subtraction of linear passive-diffusion component): 3205 pmol × mg Protein^−1 × min^−1
COc1ccc2c3c1O[C@H]1C(=O)CC[C@@]4(O)[C@@H](C2)N(C)CC[C@]314 [Oxycodone] | 0.31 | 0.23 | 0.29 | 
NC(=O)c1cnccn1 [Pyrazinamide] |  |  |  | Cis DPH, mean ratio of intracellular substrate concentration with inhibitor over without inhibitor (H + OC antiporter [3]; [7]): 1.41
Cc1ncc(C[n+]2csc(CCO)c2C)c(N)n1 [Thiamine] |  |  |  | DPH Antiport Ratio (H + OC antiporter [1]; [9]): 0.84; MDAI Antiport Ratio (H + OC antiporter [2]; [10]): 1.60
COc1cc(Cc2cnc(N)nc2N)cc(OC)c1OC [Trimethoprim] |  |  |  | DPH Antiport Ratio (H + OC antiporter [1]; [9]): 0.60; MDAI Antiport Ratio (H + OC antiporter [2]; [10]): 0.85
COc1ccccc1N1CCN(CCCNc2cc(=O)n(C)c(=O)n2C)CC1 [Urapidil] |  |  |  | Cis DPH, mean ratio of intracellular substrate concentration with inhibitor over without inhibitor (H + OC antiporter [3]; [7]): 0.52; Cis Mema, mean ratio of intracellular substrate concentration with inhibitor over without inhibitor (H + OC antiporter [3]; [8]): 0.4
